Laboratory results reported in patent US12203909B2, “Compositions for conjugating a sulfonephthalein dye to a substrate” (priority 2018, dated 2025).

Experiments:
[1] = for pKa / λ1, nm / λ2, nm: Table 3, PR derivatives; for λ1^pH 6/pH 9 Abs ratio: calculated as OD 430 nm pH 6.0/OD 430 nm pH 9.0
[2] = SPD derivative UV-Vis spectral and chemical properties (Table 1); type: physicochemical; settings: pH sensitive wavelength of SPD^−2
Text: The HA and A^− concentrations are related by the Henderson-Hasselbalch equation: pH=pKa+log[A^−]/[H—A] where Ka is the acid dissociation constant, pKa is −log Ka, and [A^−] and [HA] are the concentrations of dissociated and undissociated dye acid form, respectively.
Such compounds are commonly used as pH sensitive indicators for determination of pH of aqueous solutions. […] The structure of suitable SPDs and their conjugate bases are shown generically below, and their spectral and chemical properties are reported in Table 1.
Unmodified SPDs have been used for the preparation of pH sensitive indicators adsorbed on the surface of suitable polymeric materials, such as cellulose based materials. […] In general, substitution with electron acceptor substituents (e.g., Cl, Br in the C2/C5 positions) results in a pKa shift to a lower pH range relative to PR, and substitution with electron donor substituents (e.g., C1-C3 alkyl in the C2, C4 and C5 positions) results in a pKa shift to a higher pH range. […] Examples of such SPDs include bromocresol purple and bromothymol blue.
Measurement of absorbance at specific wavelengths allows for the determination of the concentrations of the acidic and basic forms of the dye. These wavelengths are typically selected based upon the absorbance maxima for each specific dye, although other wavelengths can be employed albeit with diminished sensitivity.

Compound	pKa [1]	λ1, nm [1]	λ2, nm [1]	λ1^pH 6/pH 9 Abs ratio [1]	λ2, nm (SPD^−2 form) [2]	extinction coefficient of λ1 ([1]; at the maximum SPD^−1 concentration)	extinction coefficient of λ2 ([1]; at the maximum SPD^−2 concentration)
Dimethylol phenol red [Dimethylol phenol red (PR2)]	8.6	429 nm	565 nm	1.8			
Cc1cc(C2(c3ccc(O)c(C)c3)OS(=O)(=O)c3ccccc32)ccc1O [Cresol Red (CR), Cresol Red]					565 nm		
Monomethylol phenol red [Monomethylol phenol red (PR1)]	7.4	430 nm	565 nm	5.5		~10,000 mol^−1L^−1 cm	~20,000 mol^−1L^−1 cm
